Laboratory results published in publication PMC12209991 (Clinical Pharmacology in Drug Development, 2025).

Assay: Single ascending dose (SAD) pharmacokinetics in healthy volunteers
Format: in vivo, human
Conditions: single doses, from 25 to 150 mg and then from 300 to 1000 mg

CC(=O)N1CCC(COc2cc(F)c3c(=O)[nH]c(CSC4CCOCC4)nc3c2)CC1 [RBN‐3143]
dose proportionality of plasma Cmax and AUCinf: dose‐proportional
